# scFv variants of Ab-95 (light chain) against a SARS-CoV-2 spike peptide

Source: Engelhart et al. 2022 (doi:10.1038/s41597-022-01779-4), MIT Lincoln Laboratory and A-Alpha Bio; data file from the FLAb repository.

Target: peptide PDVDLGDISGINAS, taken from heptad repeat 2 (HR2) of SARS-CoV-2 spike.

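The parent was found by panning a naive human phage display library on the peptide. The library (AAYL52) carries one to three amino acid substitutions per variant, with no insertions or deletions. The scFvs were displayed on barcoded MATa yeast, the peptide on MATalpha yeast. After mating in shaken culture at 30 °C for 16 h, diploids were selected and their barcode pairs sequenced. Scores were corrected for input abundance and mapped to Kd with protein pairs of known affinity run in the same pool. There are three technical replicates.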

Parent: Ab-95, a human scFv built as VH, three GGGGS repeats, VL. Only the CDRs of the light chain vary.
VH: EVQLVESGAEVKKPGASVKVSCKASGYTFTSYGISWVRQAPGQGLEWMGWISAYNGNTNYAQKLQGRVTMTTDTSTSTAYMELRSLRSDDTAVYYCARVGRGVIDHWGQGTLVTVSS
VL: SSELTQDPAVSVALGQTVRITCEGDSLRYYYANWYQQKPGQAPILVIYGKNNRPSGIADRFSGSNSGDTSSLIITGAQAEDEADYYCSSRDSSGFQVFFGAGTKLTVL

Variants are written as CDR1, CDR2 and CDR3 of the light chain (limits as in the source). Parent: EGDSLRYYYAN, GKNNRPS, SSRDSSGFQVF.
Scale: log10 of Kd in nM, estimated from mating counts; low values are strong binders.
Averages over replicates are reported, and they cover detected replicates only.
"n.d." marks a missing value. The strain was present, yet no cells mated with the target were sequenced in that replicate, which points to weak or no binding.
As a blank, each scFv also met three strains without target: over library AAYL52, 28% of these pairings were detected, typically at 3.91 and seldom below 2.90. The control count says in how many pairings with the empty strains this scFv gave a signal, with their mean in brackets.

CDR-L1	CDR-L2	CDR-L3	log10 Kd, replicates	log10 Kd (nM), mean	signal with controls
EGDSLRYYLAR	GKNNRPS	SSRDSSTFQVF	3.76 / n.d. / n.d.	3.76	1 of 9 (3.86)
EGDYLRYPYAN	GKNTRPS	SSRDSSGFQVF	2.90 / 3.39 / 2.42	2.91	2 of 9 (4.14)
ESDSLRYYYAN	GKNNPPS	SSRDSSGFQVF	3.14 / n.d. / 2.83	2.99	1 of 9 (4.27)
EGISLRYYYAN	GKNNRPS	SSRDSSGFQVF	2.44 / 2.22 / 2.41	2.35	2 of 9 (4.01)
EGDSLRYYYAN	GKNNRES	FSRDSSGFQVF	n.d. / n.d. / n.d.	n.d.	4 of 9 (3.74)
EGTSLRYYYAN	GKNNRPS	SSIASSGFQVF	n.d. / n.d. / n.d.	n.d.	1 of 9 (2.35)
EGDYLRYTYAN	GKNIRPS	SSRDSSGFQVF	1.60 / 1.44 / 1.08	1.37	0 of 9
EGDSLRYYRAN	GKLNRPF	SSRDSSGFQVF	4.17 / n.d. / n.d.	4.17	2 of 9 (3.98)
EGDSLRYYYAN	GKNNRAS	SSRDSSRFDVF	n.d. / n.d. / n.d.	n.d.	1 of 9 (3.07)
KGDSLRYYYAL	GKNNRPS	SSRDSSGFQVL	5.13 / 3.85 / 3.74	4.24	4 of 9 (4.30)
EGDSLRYYYAN	TKNNVPS	SSRDSSGFQVF	n.d. / 4.66 / n.d.	4.66	4 of 9 (3.84)
EGDDLREYYAN	GKFNRPS	SSRDSSGFQVF	3.67 / n.d. / 4.44	4.06	4 of 9 (3.76)
EGDSLRYYYAN	GKNNVTS	SSRDSSGFQVF	3.23 / 2.70 / 2.99	2.97	6 of 9 (4.06)
HGDSLRYYYAN	GKNDRPS	LSRDSSGFQVF	2.83 / 2.26 / 2.68	2.59	2 of 9 (3.56)
DGDSLRYYYAN	GKNMRPS	SSRGSSGFQVF	2.90 / 2.86 / 2.83	2.87	4 of 9 (4.35)
EGDQLRYYYAN	GKTNRPS	SSRDSSGFQEF	3.50 / 3.98 / 3.33	3.60	5 of 9 (4.52)
EGDSLRPYYAN	GRNNRPS	SSRDSSGFQQF	2.72 / n.d. / n.d.	2.72	3 of 9 (3.10)
EGDSLRCYYAN	GKNNWPS	SSRDSSGEQVF	n.d. / n.d. / n.d.	n.d.	2 of 9 (3.55)
EGDSLRYYYAN	IKNNRVS	SSRDSSMFQVF	n.d. / n.d. / n.d.	n.d.	1 of 9 (3.33)
EHDSLRYYYAN	GKNNRCS	SYRDSSGFQVF	n.d. / 4.91 / n.d.	4.91	5 of 9 (3.95)
EADSLRYYYAN	GDNNRPS	SSRDSSGFQVP	2.60 / 2.71 / 2.34	2.55	2 of 9 (3.96)
EGDSLRYYYAP	GKNNRPS	SSDKSSGFQVF	5.62 / n.d. / n.d.	5.62	1 of 9 (4.12)
EGASLRWYYAN	GKNNRPS	SSRDSSRFQVF	2.94 / 3.54 / 4.16	3.55	3 of 9 (3.53)
EGDSLRYYYSN	GKNNRPE	SSDDSSGFQVF	2.42 / 2.32 / 2.09	2.27	2 of 9 (4.39)
EGDSLRYYYAN	GKNNRPN	SSRDSSGFHVG	2.12 / 2.07 / 1.96	2.05	4 of 9 (4.53)
EGDSLRYYYAN	GKNNCPS	SWRDSWGFQVF	n.d. / n.d. / 3.69	3.69	3 of 9 (4.73)
EGDSLRYYYAN	GKNNRTS	SPRTSSGFQVF	n.d. / n.d. / n.d.	n.d.	1 of 9 (4.56)
EGDSLDYYYAN	RKNNRSS	SSRDSSGFQVF	4.43 / n.d. / 4.58	4.50	4 of 9 (4.32)
EGDCPRYYYAN	GKNNRPF	SSRDSSGFQVF	n.d. / n.d. / n.d.	n.d.	1 of 9 (3.82)
EGDSLRYYYLN	GKNNRPS	SPRDSIGFQVF	3.75 / n.d. / n.d.	3.75	5 of 9 (4.35)
EGDSLRYYYAE	GKNNRPS	SSRDQSGFHVF	n.d. / 4.09 / 3.51	3.80	3 of 9 (3.51)
EGDSLRSYYAN	GKDNTPS	SSRDSSGFQVF	3.06 / 3.81 / 2.68	3.18	2 of 9 (4.79)
NGDSLRYYYWN	WKNNRPS	SSRDSSGFQVF	n.d. / n.d. / n.d.	n.d.	0 of 9
EGDTLRYYYAN	GKNNRPE	SSRDSSGFQVC	1.93 / 2.11 / 1.75	1.93	2 of 9 (3.49)
EGDSLRVYYAN	GKYNRPS	SSTDSSGFQVF	3.74 / 4.22 / n.d.	3.98	4 of 9 (3.74)
EGCSLRYYYAN	GKSNRPS	SSRDSSGFYVF	n.d. / n.d. / n.d.	n.d.	3 of 9 (4.37)
EGDSLNYYYAN	GKNNRPS	SSRDYSGRQVF	2.65 / 2.22 / 1.70	2.19	1 of 9 (2.98)
EGDSLRWYYAN	VKNTRPS	SSRDSSGFQVF	n.d. / 3.45 / n.d.	3.45	2 of 9 (3.70)
EGDSLRYYYAN	GFNNRPV	LSRDSSGFQVF	n.d. / n.d. / 4.35	4.35	2 of 9 (3.81)

The 7 strongest on average among those seen in every replicate, once more:

CDR-L1	CDR-L2	CDR-L3	log10 Kd, replicates	log10 Kd (nM), mean	signal with controls
EGDYLRYTYAN	GKNIRPS	SSRDSSGFQVF	1.60 / 1.44 / 1.08	1.37	0 of 9
EGDTLRYYYAN	GKNNRPE	SSRDSSGFQVC	1.93 / 2.11 / 1.75	1.93	2 of 9 (3.49)
EGDSLRYYYAN	GKNNRPN	SSRDSSGFHVG	2.12 / 2.07 / 1.96	2.05	4 of 9 (4.53)
EGDSLNYYYAN	GKNNRPS	SSRDYSGRQVF	2.65 / 2.22 / 1.70	2.19	1 of 9 (2.98)
EGDSLRYYYSN	GKNNRPE	SSDDSSGFQVF	2.42 / 2.32 / 2.09	2.27	2 of 9 (4.39)
EGISLRYYYAN	GKNNRPS	SSRDSSGFQVF	2.44 / 2.22 / 2.41	2.35	2 of 9 (4.01)
EADSLRYYYAN	GDNNRPS	SSRDSSGFQVP	2.60 / 2.71 / 2.34	2.55	2 of 9 (3.96)